Test results reported in patent US20230111853A1, “COMPOUNDS MODULATING PROTEIN RECRUITMENT AND/OR DEGRADATION” (Orionis Biosciences, Inc., priority 2019, published 2023).

Tested on: IKZF1, ASS1 and SALL4 recruitment to CRBN
Assay: Recruitment assessment: recruitment of any tested substrate from among IKZF1, ASS1 and SALL4
Format: cell-based
Settings: any tested substrate at any tested compound concentration

Q: O=C1CCC(N2Cc3ccc(NC(=O)c4cnc5[nH]cnc5c4)cc3C2=O)C(=O)N1 (stereo not shown) was tested. Which “Recruitment Assessment” value did it give?
A: TRUE
